PubChem BioAssay AID588358 (NMMLSC, 2011)
This is a selection; strong and weak results do not stand in their true shares. Some results for these compounds are left out of this collection, so the calls shown say nothing about other tests. The source made the active and inactive calls.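 Rule for the calls: active = binding more than 3 SD below its plate's average and above zero; inconclusive = below that plate limit but binding exactly zero; inactive = the rest.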

The chains behind the UniProt entries cited, without tags or fusion partners.
UniProt P32926, whole entry, looked up: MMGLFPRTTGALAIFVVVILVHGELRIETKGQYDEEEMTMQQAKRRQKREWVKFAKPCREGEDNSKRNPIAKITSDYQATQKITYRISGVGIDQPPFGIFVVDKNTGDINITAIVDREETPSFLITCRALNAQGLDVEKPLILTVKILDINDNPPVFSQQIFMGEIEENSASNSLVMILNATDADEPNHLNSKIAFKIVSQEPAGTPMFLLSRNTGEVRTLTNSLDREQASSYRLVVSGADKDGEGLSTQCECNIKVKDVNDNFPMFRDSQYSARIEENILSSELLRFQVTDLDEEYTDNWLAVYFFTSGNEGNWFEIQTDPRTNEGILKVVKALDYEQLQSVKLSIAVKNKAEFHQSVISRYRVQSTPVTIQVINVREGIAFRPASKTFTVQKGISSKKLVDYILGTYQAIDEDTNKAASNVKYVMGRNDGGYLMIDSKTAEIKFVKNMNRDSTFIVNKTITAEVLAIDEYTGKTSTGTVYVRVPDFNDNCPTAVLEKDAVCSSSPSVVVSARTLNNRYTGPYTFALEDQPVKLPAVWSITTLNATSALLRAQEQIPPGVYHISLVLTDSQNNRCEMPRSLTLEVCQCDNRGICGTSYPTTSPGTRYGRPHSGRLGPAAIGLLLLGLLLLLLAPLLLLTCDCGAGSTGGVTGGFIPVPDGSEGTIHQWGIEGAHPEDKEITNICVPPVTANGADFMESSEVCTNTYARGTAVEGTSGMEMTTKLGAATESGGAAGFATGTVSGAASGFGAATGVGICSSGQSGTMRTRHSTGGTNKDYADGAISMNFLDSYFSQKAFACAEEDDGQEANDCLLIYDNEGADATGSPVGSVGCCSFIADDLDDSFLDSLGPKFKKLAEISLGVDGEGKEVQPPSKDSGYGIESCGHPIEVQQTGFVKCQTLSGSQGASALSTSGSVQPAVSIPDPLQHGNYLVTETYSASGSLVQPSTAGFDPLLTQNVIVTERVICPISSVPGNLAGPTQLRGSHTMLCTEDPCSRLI

The molecules below were run against Desmoglein-3 (Homo sapiens) (UniProt P32926) (assay: inhibitors of pemphigus antibody binding to DSG3, primary screen, biochemical, bead-based, flow cytometry, scFv-GFP (AID 588358;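 note: hits lower antibody fragment binding to DSG3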)). Conditions: DSG3-coupled beads, scFv-anti-DSG3-GFP binding, at 10 µM, active compounds read low.

SMILES	binding (percent of control)
CN(C)C1(CNC(=O)c2ccc(Br)cc2)CCCCC1	inactive: 113%
COc1cc(C(=O)NCC2(N(C)C)CCCCC2)c([N+](=O)[O-])cc1OC	inactive: 105%
COc1ccc(Cl)cc1C(=O)NCC1(N(C)C)CCCCC1	inactive: 99.5%
O=C(OC1CN2CCC1CC2)C(CO)(c1ccccc1)c1ccccc1 (configuration not stated)	inactive: 109%
C=C(C)C#CC(O)(C(=O)OC1CCN(C)CC1)c1ccccc1 (configuration not stated)	inactive: 102%
COc1ccc(Br)c(C(=O)NCC2(N3CCCCC3)CCCCC2)c1	inactive: 108%
O=C(OCCN1CCCC1)C(O)(c1ccccc1)c1ccccc1	inactive: 118%
CC(C)Oc1ccc(C(=O)NCC2(N(C)C)CCCCC2)cc1	inactive: 101%
CN(C)c1cccc(C(=O)NCC2(N(C)C)CCCCC2)c1	inactive: 99.2%
O=C(NCC1(N2CCCCC2)CCCCC1)c1cc([N+](=O)[O-])ccc1Cl	inactive: 108%
CN1[C@@H]2CC[C@H]1CC(OC(=O)C(O)(c1ccccc1)c1ccccc1)C2 (some centres not stated)	inactive: 91%
COc1cc(SC)ccc1C(=O)NCC1(N(C)C)CCCCC1	inactive: 99.2%
CCN(CC)CC(C)C(C)OC(=O)C(O)(c1ccccc1)c1ccccc1 (configuration not stated)	inactive: 85.4%
Cc1ccc(C(=O)NCC2(N3CCCCC3)CCCCC2)cc1	inactive: 116%
CN(C)c1ccc(C(=O)NCC2(N(C)C)CCCCC2)cc1	inactive: 97.8%
CN(C)C1CCCC1OC(=O)C(O)(c1ccccc1)c1ccccc1 (configuration not stated)	inactive: 102%
Cc1ccccc1C(=O)NCC1(N2CCCCC2)CCCCC1	inactive: 100%
O=C(NCC1(N2CCCCC2)CCCCC1)c1cc(F)c(F)cc1Cl	inactive: 96.8%
C=CCN1CCN(CCOC(=O)C(O)(c2ccccc2)c2ccccc2)CC1	inactive: 100%
COc1ccc(C(=O)NCC2(N(C)C)CCCCC2)cc1	inactive: 89.2%
CCN1CCCC(OC(=O)C2(O)c3ccccc3C=Cc3ccccc32)C1 (configuration not stated)	inactive: 104%
Cc1cc(C(=O)NCC2(N3CCCCC3)CCCCC2)ccc1[N+](=O)[O-]	inactive: 111%
